Experimental data: publication PMC4037836 (British Journal of Cancer, 2014)

Tested on: CYP3A4
Assay type: in vivo, human
Details: increase in paclitaxel AUC and Cmax less than two-fold in the presence of pazopanib and lapatinib

Inhibition of CYP3A4 (classification): weak inhibitors
Substance: 5-((4-((2,3-dimethyl-2H-indazol-6-yl)methylamino]-2-pyrimidinyl)amino)-2-methyl-benzenesulfonamide [pazopanib]
